Reference: patent US8637568B2, “Serotonin reuptake inhibitors” (Theravance, Inc., priority 2010, dated 2014)

Protein sequences, listed by entry. Tags and fused reporters are not part of them.
UniProt P31645, whole entry: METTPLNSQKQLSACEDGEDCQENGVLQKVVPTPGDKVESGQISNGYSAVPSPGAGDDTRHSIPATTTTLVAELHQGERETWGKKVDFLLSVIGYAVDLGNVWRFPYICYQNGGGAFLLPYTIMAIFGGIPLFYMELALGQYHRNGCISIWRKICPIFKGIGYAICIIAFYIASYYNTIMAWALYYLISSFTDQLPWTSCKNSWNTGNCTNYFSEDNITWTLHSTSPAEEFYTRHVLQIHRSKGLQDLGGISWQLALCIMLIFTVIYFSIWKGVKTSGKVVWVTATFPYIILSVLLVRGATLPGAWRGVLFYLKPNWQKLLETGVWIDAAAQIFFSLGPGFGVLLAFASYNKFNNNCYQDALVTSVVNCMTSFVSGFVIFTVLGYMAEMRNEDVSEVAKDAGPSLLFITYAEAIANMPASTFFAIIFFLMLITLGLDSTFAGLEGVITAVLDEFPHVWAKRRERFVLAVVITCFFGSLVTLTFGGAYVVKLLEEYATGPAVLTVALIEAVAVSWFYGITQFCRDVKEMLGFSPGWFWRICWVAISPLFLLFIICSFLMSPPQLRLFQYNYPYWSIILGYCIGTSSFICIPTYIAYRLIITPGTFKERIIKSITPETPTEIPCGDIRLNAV

Legend:
[1] = target: T1, human recombinant serotonin transporter (hSERT) (Homo sapiens, UniProt P31645); assay: hSERT binding assay (3H-citalopram membrane radioligand binding); details: inhibition of 3H-citalopram binding to membranes from HEK-293 cells expressing hSERT; Cheng-Prusoff
T1 construct: expressed in transfected cells; host or cells: HEK-293 (stably transfected), membrane preparation
Protocol: Membrane radioligand binding assays were used to measure inhibition of labeled ligand (^3H-citalopram) binding to membranes prepared from cells expressing the human recombinant serotonin transporter (hSERT) in order to determine the pKi values of test compounds at the transporters.
Recombinant human embryonic kidney (HEK-293) derived cell lines stably transfected with hSERT, were grown in Dulbecco's Modified Eagle's Medium supplemented with 10% dialyzed fetal bovine serum, 100 μg/ml penicillin, 100 μg/ml streptomycin, 2 mM L-glutamine and 250 µg/ml of the aminoglycoside antibiotic G418, in a 5% CO2 humidified incubator at 37° C. […] Protein concentration of the membrane suspension was determined using a Bio-Rad Bradford Protein Assay kit. […]
Stock solutions (10 mM in DMSO) of test compound were prepared and serial dilutions made using Dilution Buffer (50 mM Tris-HCl, 120 mM NaCl, 5 mM KCl, pH 7.4, 0.1% bovine serum albumin, 400 μM ascorbic acid). Non-specific radioligand binding was determined in the presence of 1 μM duloxetine (in Dilution Buffer).
Following a 60 minute incubation at 22° C. […] Plates were dried overnight at room temperature, −45 μl of MicroScint™-20 (Perkin Elmer) added and bound radioactivity quantitated via liquid scintillation spectroscopy. […]

[2] = target: T2, human recombinant SERT (HEK293-hSERT cells) (Homo sapiens, UniProt P31645); assay: hSERT neurotransmitter uptake assay; assay type: cell-based; details: serotonin reuptake inhibition in HEK293-hSERT cells
T2 construct: expressed in transfected cells; host or cells: HEK293 (stably transfected), whole cells
Protocol: HEK293 cells stably-transfected with human recombinant SERT (HEK293-hSERT) were grown in Dulbecco's Modified Eagle's Medium supplemented with 10% dialyzed fetal bovine serum, 100 µg/ml penicillin, 100 µg/ml streptomycin, 2 mM L-glutamine, and 250 μg/ml of the aminoglycoside antibiotic G418. Cells were incubated in a 5% CO2, humidified incubator at 37° C.
In pre-incubation studies, test compound was added to cells for 30 minutes at 37° C. prior to the addition of fluorescent substrate. […] For real-time measurements, compounds were either preincubated (as above) or mixed with substrate prior to addition, and kinetic measurements, relative fluorescence units (RFU integrated over 0.5 ms),were made using a cycle time of 1 min.

Substance: N-[(S)-2-(S)-Pyrrolidin-3-yl-2-(4-trifluoromethylphenoxy)ethyl]sulfonylurea [Example 3-9]
- SERT pKi [1]: ≧8.0
- SERT pIC50 [2]: ≧8.0
